Target: T1, DNA-PK (Homo sapiens, UniProt P78527)
T1 construct: HeLa S3 cells (ATCC CCL-2.2; Batch F12594) were raised in MEM-Joklik media; endogenous in cells; host or cells: HeLa S3 cells (ATCC CCL-2.2); Endogenous enzyme purified in house: S100-2 fraction, then Q-Sepharose FF, then SP-Sepharose FF, giving fraction IV
Assay: Standard DNA-PK assay (phosphorylation of p53 peptide substrate)
Assay type: biochemical
Experimental: Reactions were carried out at room temperature. Reactions were started by addition of ATP and stopped by application to phosphocellulose paper. Reaction products spotted onto phosphocellulose paper were washed five times with a total volume of at least 250 mL 10% acetic acid or 150 mM phosphoric acid. The paper was air dried and radioactivity was determined in a Beckman LS6000IC scintillation counter.

Chains of the proteins cited; added tags and fusions are not shown.
UniProt P78527, whole entry: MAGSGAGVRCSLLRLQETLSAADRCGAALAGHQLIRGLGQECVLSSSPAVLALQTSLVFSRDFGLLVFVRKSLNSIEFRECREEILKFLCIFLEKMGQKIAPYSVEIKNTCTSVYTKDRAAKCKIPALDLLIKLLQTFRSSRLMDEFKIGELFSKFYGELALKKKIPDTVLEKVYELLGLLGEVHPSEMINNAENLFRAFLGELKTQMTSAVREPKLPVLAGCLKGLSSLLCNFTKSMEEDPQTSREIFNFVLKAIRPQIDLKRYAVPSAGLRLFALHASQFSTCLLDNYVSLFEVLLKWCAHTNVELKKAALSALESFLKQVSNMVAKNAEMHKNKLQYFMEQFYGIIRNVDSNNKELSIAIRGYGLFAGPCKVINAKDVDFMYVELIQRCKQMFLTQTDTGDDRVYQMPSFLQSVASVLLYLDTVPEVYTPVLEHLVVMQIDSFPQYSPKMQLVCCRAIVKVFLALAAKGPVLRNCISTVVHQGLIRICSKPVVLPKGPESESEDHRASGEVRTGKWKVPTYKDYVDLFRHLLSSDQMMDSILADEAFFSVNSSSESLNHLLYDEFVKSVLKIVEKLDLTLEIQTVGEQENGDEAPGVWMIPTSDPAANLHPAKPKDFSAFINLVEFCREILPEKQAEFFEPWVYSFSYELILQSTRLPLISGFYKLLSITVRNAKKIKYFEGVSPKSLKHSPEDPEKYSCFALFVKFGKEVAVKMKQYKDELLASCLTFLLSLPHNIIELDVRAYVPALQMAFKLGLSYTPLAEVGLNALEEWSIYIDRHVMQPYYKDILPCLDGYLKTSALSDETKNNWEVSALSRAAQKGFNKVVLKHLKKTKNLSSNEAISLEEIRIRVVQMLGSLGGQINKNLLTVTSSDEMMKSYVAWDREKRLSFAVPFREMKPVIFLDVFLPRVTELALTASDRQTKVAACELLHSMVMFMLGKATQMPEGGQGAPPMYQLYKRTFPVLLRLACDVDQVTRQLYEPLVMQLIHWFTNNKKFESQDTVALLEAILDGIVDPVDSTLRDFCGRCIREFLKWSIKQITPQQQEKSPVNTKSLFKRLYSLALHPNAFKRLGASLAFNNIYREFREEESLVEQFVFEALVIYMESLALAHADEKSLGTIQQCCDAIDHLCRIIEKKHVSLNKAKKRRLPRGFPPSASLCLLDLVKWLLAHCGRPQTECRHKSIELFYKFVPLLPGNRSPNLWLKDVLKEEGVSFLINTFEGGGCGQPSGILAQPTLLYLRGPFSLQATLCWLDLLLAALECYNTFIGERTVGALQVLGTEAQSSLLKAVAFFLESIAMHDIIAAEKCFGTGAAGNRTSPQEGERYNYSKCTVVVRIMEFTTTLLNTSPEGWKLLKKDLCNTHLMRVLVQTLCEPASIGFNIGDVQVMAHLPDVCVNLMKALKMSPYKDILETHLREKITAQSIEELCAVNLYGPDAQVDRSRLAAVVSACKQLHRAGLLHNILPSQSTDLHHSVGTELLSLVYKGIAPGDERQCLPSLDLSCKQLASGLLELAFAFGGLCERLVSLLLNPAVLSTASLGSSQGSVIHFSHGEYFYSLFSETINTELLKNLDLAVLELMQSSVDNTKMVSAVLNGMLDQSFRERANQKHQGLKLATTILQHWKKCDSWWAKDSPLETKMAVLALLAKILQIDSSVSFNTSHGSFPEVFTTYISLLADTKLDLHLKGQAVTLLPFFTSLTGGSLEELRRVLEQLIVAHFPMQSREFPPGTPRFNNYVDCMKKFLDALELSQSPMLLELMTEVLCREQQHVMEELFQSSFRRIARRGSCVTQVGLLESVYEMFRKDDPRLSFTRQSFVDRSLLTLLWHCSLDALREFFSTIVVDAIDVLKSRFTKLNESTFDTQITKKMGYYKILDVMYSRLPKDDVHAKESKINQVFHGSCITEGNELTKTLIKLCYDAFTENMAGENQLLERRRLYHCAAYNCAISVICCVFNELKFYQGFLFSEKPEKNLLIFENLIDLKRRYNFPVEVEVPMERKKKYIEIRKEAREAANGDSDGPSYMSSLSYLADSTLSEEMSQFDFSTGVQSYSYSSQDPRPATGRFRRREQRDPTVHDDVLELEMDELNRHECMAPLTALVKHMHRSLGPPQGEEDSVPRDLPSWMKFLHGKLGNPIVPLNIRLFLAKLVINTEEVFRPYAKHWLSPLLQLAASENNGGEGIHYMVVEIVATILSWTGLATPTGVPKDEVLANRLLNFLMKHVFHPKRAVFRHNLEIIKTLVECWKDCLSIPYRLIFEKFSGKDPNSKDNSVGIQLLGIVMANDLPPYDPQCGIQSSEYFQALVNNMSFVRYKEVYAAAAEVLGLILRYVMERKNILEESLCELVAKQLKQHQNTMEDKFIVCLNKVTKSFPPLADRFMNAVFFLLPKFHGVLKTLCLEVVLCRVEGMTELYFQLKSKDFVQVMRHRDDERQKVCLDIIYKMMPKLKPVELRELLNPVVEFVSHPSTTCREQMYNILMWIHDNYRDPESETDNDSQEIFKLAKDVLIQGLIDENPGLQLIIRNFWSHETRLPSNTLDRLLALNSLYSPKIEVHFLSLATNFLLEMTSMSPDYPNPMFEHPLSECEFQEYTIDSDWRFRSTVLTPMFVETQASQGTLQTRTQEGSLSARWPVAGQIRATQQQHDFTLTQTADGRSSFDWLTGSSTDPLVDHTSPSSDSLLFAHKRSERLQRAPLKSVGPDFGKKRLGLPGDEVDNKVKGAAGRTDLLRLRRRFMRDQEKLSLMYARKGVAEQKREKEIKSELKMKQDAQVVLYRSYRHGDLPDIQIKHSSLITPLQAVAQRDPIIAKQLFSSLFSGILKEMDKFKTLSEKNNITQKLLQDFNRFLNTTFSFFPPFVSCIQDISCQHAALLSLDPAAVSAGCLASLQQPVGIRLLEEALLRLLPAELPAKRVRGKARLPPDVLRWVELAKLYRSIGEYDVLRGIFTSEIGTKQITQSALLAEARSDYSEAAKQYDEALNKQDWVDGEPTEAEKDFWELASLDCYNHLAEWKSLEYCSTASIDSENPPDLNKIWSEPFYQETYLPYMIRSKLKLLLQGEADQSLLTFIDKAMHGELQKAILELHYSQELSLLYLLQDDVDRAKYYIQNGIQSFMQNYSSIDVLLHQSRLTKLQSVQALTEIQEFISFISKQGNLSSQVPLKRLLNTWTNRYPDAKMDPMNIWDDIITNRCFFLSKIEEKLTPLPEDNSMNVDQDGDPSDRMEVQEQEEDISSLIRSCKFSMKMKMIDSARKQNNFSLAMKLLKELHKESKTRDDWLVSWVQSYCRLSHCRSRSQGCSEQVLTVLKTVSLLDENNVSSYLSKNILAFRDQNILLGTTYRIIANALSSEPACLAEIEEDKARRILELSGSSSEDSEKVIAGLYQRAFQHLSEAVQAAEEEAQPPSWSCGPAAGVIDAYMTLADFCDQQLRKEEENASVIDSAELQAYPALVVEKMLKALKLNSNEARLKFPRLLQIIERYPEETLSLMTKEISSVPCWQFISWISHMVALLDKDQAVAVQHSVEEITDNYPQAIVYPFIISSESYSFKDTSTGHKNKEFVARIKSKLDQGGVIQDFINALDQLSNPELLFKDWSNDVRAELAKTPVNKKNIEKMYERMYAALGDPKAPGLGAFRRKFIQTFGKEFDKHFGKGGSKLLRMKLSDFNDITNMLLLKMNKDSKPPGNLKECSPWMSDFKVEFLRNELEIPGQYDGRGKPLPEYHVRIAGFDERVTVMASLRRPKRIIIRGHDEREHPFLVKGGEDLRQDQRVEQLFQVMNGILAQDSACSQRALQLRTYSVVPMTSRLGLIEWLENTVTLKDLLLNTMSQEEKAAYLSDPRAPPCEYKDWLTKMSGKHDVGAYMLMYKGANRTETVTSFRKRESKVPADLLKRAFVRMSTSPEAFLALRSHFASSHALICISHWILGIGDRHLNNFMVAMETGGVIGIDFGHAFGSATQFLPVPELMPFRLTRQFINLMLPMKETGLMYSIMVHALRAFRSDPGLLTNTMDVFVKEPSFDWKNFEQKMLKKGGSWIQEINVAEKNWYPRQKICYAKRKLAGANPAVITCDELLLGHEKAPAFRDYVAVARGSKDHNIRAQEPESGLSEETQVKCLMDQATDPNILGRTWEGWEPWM

COC[C@H]1OC(=O)c2coc3c2[C@@]1(C)C1=C(C3=O)[C@@H]2CCC(=O)[C@@]2(C)C[C@H]1OC(C)=O [wortmannin, reference compound] showed an IC50 of 100 to 250 nM.
